Target: Recombinant human FcγRIIIa (CD16A) ectodomain (human) (UniProt P08637)
Experiment: SPR

In the case of “cetuximab (CHO cell expressed anti-EGFR)”, the Kd is reported as 218 nM.

Source: patent US20240239905A1
